# Assay results as given in patent US20260285942A1, “Peptide Having Affinity for Human Transferrin Receptor” (JCR PHARMACEUTICALS CO., LTD., priority 2021, published 2026).
# How the values were obtained:
# [1] = Quantification in brain tissue of cynomolgus monkeys 8 hours after administration; type: in vivo, cynomolgus monkey (Macaca fascicularis); conditions: 8 hours after 5 mg/kg intravenous
# Description: (§1) The brain tissue for concentration measurement was homogenized in T-PER (Thermo Fisher Scientific, Inc.) containing Protease Inhibitor Cocktail (Sigma-Aldrich Co., LLC). The obtained homogenate was centrifuged (3000 g, 5 min), and the supernatant was collected. The amounts of the hTfR affinity peptide-trastuzumab and trastumab contained in the homogenate supernatant were measured by the following method. First, equal amounts of SULFO-Goat Anti Human IgG (h+l) (Bethyl Laboratories, Inc.) (0.5 μg/mL) and Goat Anti Human Kappa Light chain-biotin (IBL) (0.5 μg/mL) were mixed, the mixture was dispensed on a sampling plate in 25-μL portions, and the sampling plate was shaken with a microplate mixer at room temperature for 1 hour to prepare reaction solutions. […] Next, 150 μL each of Read buffer T (Meso Scale Diagnostics, LLC) was added to each well, and the amount of luminescence from each well was measured using Sector™ Imager 6000 reader. The amount of the hTfR affinity peptide-trastuzumab contained per gram weight (wet weight) of brain (concentration of hTfR affinity peptide-trastuzumab in brain tissue) was calculated by creating a calibration curve from the measured values of standard samples of the hTfR affinity peptide-trastuzumab at known concentrations, and interpolating the measured value of each specimen into this calibration curve. […]
# [2] = Peripheral blood pharmacokinetics after single intravenous administration to cynomolgus monkey; type: in vivo, cynomolgus monkey (Macaca fascicularis); conditions: 5 mg/kg, one male cynomolgus monkey
# [3] = Migration to brain: concentration in brain tissue of hTfR knock-in mice after intravenous administration; type: in vivo, hTfR-KI mouse; conditions: 5 mg/kg intravenous, male hTfR-KI mice
# Description: Next, whether the hTfR affinity peptide-trastuzumabs 1 to 5 pass through the BBB and migrate into the brain when injected intravenously, was evaluated using hTfR knock-in mouse (hTfR-KI mouse) in which the gene encoding the extracellular region of mouse transferrin receptor had been replaced with a gene encoding the extracellular region of the human transferrin receptor gene. The hTfR-KI mouse was generally produced by the following method.
# A DNA fragment having a nucleotide sequence set forth in SEQ ID NO:51, in which a neomycin resistance gene flanked by loxP sequences was disposed on the 3′ side of a cDNA encoding a chimeric hTfR whose intracellular region had the amino acid sequence of mouse hTfR and whose extracellular region had the amino acid sequence of human hTfR, was chemically synthesized. […] White F1 mice were selected, DNA extracted from the tail tissue was analyzed, and a mouse in which the mouse transferrin receptor gene had been replaced with chimeric hTfR on the chromosome was designated as an hTfR-KI mouse. […]
# The brain tissue for concentration measurement was homogenized in T-PER (Thermo Fisher Scientific, Inc.) containing Protease Inhibitor Cocktail (Sigma-Aldrich Co., LLC). […] The amounts of the hTfR affinity peptide-trastuzumab and trastumab contained in the homogenate supernatant were measured by the following method. […]
# [4] = Quantification in various organs of cynomolgus monkeys 8 hours after administration; type: in vivo, cynomolgus monkey (Macaca fascicularis); conditions: 8 hours after 5 mg/kg intravenous
# Description: as §1
# [5] = Immunohistochemical staining of cerebellar tissue of hTfR knock-in mice; type: in vivo, hTfR-KI mouse; conditions: both 6 hours and 24 hours after the administration; 5 mg/kg intravenous
# Description: Each of purified products of the hTfR affinity peptide-trastuzumabs 1 to 5 obtained in Example 9 was intravenously administered to two male hTfR-KI mice at a dose of 5 mg/kg. […] After 6 and 24 hours from the administration, the mice were euthanized and subjected to whole body perfusion with physiological saline, and the brains (portion including the cerebrum and the cerebellum) were collected. The weights (wet weight) of the excised brains were measured, subsequently each of the brains was divided in the sagittal plane, and one half of the brain was used for measuring the concentration of the hTfR affinity peptide-trastuzumabs 1 to 5 in the tissue, while the other half was subjected to immunohistochemical staining.
# Immunohistochemical staining of the hTfR affinity peptide in the brain tissue was generally performed by the following procedure. The brain tissue collected for immunohistochemical staining was immersed in OCT Compound (Sakura Finetek Japan Co., Ltd.) and rapidly frozen to −80° C. using Histo-Tek PINO (Sakura Finetek Japan Co., Ltd.), and a frozen block of tissue was produced. […] Next, Fluorescein Amplification Working Solution included in TSA-Plus Fluorescence Kit (PerkinElmer, Inc.) was dropped onto the tissue slice and was allowed to react for 15 minutes in the dark. […]
substance,measurement,setting,value
Trastuzumab: antibody medicine exerting an anti-tumor effect by specifically binding to HER2,"concentration in cerebral cortex, cerebellum, hippocampus, midbrain, pons, medulla oblongata, caudate nucleus, putamen, globus pallidus, and thalamus",[1],hardly detected
same,concentration in retina,[1],detected at almost the same concentration
same,t½β,[2],2.27 h
same,Concentration in brain tissue,[3]; after 6 hours from administration,0.07 μg/g · tissue
same,Concentration in brain tissue,[3]; after 24 hours from administration,0.04 μg/g · tissue
same,concentration in heart,[4],detected at high concentrations
same,immunohistochemical staining in cerebellar tissue / brain parenchyma,[5],no staining was recognized
